# Reference: PMC10795032 (ACS Omega, 2024)
# Test system: pEGFR
# Test: Western blot, EGF-stimulated phosphorylation of EGFR
# Settings: U87-MG, 5 μM, 24 h, then EGF 50 ng/mL 15 min
smiles,measurement,value
COc1cc2ncnc(Nc3ccc(F)c(Cl)c3)c2cc1OCCCN1CCOCC1 [Gefitinib],pEGFR expression,significantly downregulated
